Measurements: ChEMBL document CHEMBL1649468, “AAC(6')-Iaf, a novel aminoglycoside 6'-N-acetyltransferase from multidrug-resistant Pseudomonas aeruginosa clinical isolates” (2009)

System: Escherichia coli
Settings: JM109

## GENTAMICIN
  MIC: 0.5 µg/mL
